Literature values as cited in patent US20140228302A1, “COMPOUNDS, COMPOSITIONS AND METHODS FOR TREATING OR PREVENTING HYPOXIC OR ISCHEMIC INJURY” (FRED HUTCHINSON CANCER RESEARCH CENTER, priority 2010, published 2014).

Conditions: rat, in vivo, iv, 1 mg/kg; cited from earlier work

## sodium sulfide
  Free sulfide in blood: robust elevation
